Biological target: α1B-AR (Ovis aries, UniProt A0ACI6RKW0)
Assay: functional antagonism (KB) of phenylephrine-induced contraction in isolated arteries

By UniProt entry, the sequences of proteins in these tests, tags left out. Residues count along the entry.
UniProt A0ACI6RKW0, 1-515: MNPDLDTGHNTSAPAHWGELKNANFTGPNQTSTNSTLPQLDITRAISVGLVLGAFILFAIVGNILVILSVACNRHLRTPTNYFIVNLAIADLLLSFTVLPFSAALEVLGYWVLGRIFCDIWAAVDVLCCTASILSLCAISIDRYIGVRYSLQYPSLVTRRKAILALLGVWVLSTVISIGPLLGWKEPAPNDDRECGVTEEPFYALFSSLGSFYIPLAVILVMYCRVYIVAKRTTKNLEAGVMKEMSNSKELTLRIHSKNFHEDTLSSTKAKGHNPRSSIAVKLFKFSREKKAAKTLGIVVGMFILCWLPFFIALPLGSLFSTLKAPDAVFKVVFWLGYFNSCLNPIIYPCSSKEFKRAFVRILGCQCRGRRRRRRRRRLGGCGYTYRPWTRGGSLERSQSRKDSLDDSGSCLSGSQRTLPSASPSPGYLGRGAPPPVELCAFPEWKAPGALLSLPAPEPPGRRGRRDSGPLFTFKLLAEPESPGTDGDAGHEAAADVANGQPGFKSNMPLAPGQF

CN(CCCl)Cc1cc(Cl)c(NC2=NCCN2)c(Cl)c1
Kb: 0.53 nM

Source: PMC4231100, “Cerebral Artery Alpha-1 AR Subtypes: High Altitude Long-Term Acclimatization Responses” (PLoS ONE, 2014)
